Test results reported in patent publication US5759556A, “Skin care compositions containing certain cyclic aliphatic unsaturated compounds and retinol or retinyl ester” (Chesebrough-Pond's USA Co., Division of Conopco, Inc., priority 1996, dated 1998).

Target: T1, LRAT (Bos taurus, UniProt Q9BGL2)
T1 construct: microsomal fraction isolated from bovine retinal pigment epithelial cells; from tissue; host or cells: bovine retinal pigment epithelial cells, microsomal fraction
T1 sequence (Q9BGL2 1-230): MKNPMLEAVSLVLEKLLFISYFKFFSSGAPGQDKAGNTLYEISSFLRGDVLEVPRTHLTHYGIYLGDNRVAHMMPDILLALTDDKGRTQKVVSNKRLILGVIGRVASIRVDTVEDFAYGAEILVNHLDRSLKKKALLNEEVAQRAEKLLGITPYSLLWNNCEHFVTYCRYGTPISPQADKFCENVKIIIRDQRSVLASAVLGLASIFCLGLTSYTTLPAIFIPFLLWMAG
Assay: In vitro microsomal esterification of retinol, LRAT catalyzed (retinyl laurate formation)
Assay type: biochemical, bovine
Settings: Table A

`CC1=CCC(C(C)(C)O)CC1` (stereo not drawn) [alpha terpineol] was tested, and the inhibition at 100 µM was 25%.
